Laboratory results as given in patent US20100286233A1, “PERIPHERAL AND NEURAL INFLAMMATORY CROSSTALK” (University of Rochester, priority 2006, published 2010).

Tested on: C2C12 cell line
Assay: C2C12 conversion to osteoblastic phenotype, alkaline phosphatase histochemistry
Type: cell-based
Details: BMP-2 300 ng/mL over 4 days
Experimental: In vitro studies: The C2C12 cell line, an in vitro model of chondrocyte differentiation and maturation, was obtained from ATCC and cultured in DMEM plus 10% normal bovine serum for 4 days as previously described (Katagiri, T., et al. 1994). In addition, cells were treated with BMP-2 (300 ng/mL) or alternatively with BMP-2 plus PGE2 (10^−8M) or recombinant IL-1β (10 ng/mL) or butaprost (10^−8M) in the culture medium. At the end of the experiment, cells were fixed with 10% formalin. Alkaline phosphatase expression was evaluated using the BCIP/NBT histochemistry method (Vector Labs, Burlingame Calif.). Positively-stained cells were counted in 10 random 20× fields using an inverted Olympus CK41 microscope.

B1: BMP-2: BMP-2 added to C2C12 culture medium at 300 ng/mL (protein, UniProt P12643 283-396, looked up)
Bone morphogenetic protein 2: QAKHKQRKRLKSSCKRHPLYVDFSDVGWNDWIVAPPGYHAFYCHGECPFPLADHLNSTNHAIVQTLVNSVNSKIPKACCVPTELSAISMLYLDENEKVVLKNYQDMVVEGCGCR
Which “cells in culture expressing alkaline phosphatase” value does the source give for B1 here?
Its value is 10%.
